Measured values taken from patent US5792775A (priority 1996, dated 1998).

Sequences of proteins named here, by UniProt entry; tags and fusion partners are left off. A change or cut given only in a name is not applied to a line headed by its entry.
UniProt P08482: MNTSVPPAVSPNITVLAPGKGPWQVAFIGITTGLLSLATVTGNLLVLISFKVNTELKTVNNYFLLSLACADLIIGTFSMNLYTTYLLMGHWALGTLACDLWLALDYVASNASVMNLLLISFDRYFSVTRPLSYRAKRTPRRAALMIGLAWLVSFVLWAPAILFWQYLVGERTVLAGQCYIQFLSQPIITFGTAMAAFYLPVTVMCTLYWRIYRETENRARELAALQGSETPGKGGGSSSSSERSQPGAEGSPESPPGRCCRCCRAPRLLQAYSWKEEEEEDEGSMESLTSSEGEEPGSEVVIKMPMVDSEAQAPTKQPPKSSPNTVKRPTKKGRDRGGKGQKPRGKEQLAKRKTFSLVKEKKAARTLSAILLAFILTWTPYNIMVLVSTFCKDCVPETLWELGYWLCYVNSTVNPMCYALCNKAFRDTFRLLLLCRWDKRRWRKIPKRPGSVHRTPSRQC

Molecular target: muscarinic m1 receptors (Rattus norvegicus, UniProt P08482)
Assay: biochemical
Assay type: binding

CN1[C@@H]2CC[C@H]1C[C@@H](OC(c1ccc(F)cc1)c1ccc(F)cc1)C2 [Compound 7c, 4',4"-difluoro-3α-(diphenylmethoxy)tropane]
Ki: 6.1 nM
